Experimental data from ChEMBL document CHEMBL5212743, “Selectivity Literature for EUbOPEN Chemogenomics Library wave 3” (2023).

Biological target: Mu-type opioid receptor (Homo sapiens, UniProt P35372)
Assay: Selectivity interaction (Enzyme panel (GPCRS, ion channels, and transporters)) EUB0000194b OPRM1

COc1cc2c(NC3CCN(C(C)C)CC3)nc(N3CCC(F)(F)CC3)nc2cc1OCCCN1CCCC1
Ki: > 10 µM
